According to patent US20140322278A1, “Modulation of Tissue Transglutaminase Activation in Disease” (The Board of Trustees of the Leland Stanford Junior …, priority 2011, published 2014):

Target: T1, human oxidized TG2 (Homo sapiens, UniProt P21980)
T1 construct: host or cells: Trx from recombinant E. coli
T1 sequence (P21980 1-687): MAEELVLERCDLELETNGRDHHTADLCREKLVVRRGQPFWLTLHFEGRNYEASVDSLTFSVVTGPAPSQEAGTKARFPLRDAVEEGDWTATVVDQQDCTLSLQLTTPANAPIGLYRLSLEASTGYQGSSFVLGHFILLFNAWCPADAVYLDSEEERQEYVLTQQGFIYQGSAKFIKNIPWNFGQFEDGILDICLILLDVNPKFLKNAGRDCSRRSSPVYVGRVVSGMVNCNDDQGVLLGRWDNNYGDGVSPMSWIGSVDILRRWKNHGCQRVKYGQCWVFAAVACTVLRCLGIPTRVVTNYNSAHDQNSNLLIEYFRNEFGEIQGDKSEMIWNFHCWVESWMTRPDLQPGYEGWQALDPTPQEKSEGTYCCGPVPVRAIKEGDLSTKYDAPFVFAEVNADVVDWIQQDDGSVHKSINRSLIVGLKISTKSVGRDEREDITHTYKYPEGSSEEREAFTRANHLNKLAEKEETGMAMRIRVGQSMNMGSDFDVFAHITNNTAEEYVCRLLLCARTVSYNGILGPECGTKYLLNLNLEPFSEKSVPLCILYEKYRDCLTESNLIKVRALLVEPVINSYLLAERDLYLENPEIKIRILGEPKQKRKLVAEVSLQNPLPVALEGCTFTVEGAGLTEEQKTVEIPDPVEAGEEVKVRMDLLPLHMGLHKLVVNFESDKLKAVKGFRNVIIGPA
Experiment: Kinetics of Trx-mediated reduction of oxidized TG2
Type: biochemical
Experimental: To test our hypothesis, we measured the kinetics of Trx-mediated activation of oxidized TG2. Reduced forms of Trx from E. coli and human were prepared by overexpression in and purification from recombinant E. coli. Dithiothreitol (DTT) was used as a reference small molecule reducing agent. […] We therefore quantified the specificity of human Trx for human oxidized TG2 by measuring the Michaelis-Menten parameters for Trx-mediated reduction of oxidized TG2. Insulin, a well-characterized extracellular substrate of Trx, was used as a reference, and human thioredoxin reductase was used as a catalyst to achieve turnover under steady-state conditions. […] Based on these parameters, one can estimate that as little as 2.5 nM Trx in the extracellular matrix should be able to activate 10% of the local oxidized TG2 within 30 min.

B1: recombinant human Trx: reduced human thioredoxin, overexpressed in and purified from recombinant E. coli (protein, UniProt P10599 2-105, looked up)
Thioredoxin: VKQIESKTAFQEALDAAGDKLVVVDFSATWCGPCKMIKPFFHSLSEKYSNVIFLEVDVDDCQDVASECEVKCMPTFQFFKKGQKVGEFSGANKEKLEATINELV
modifications: reduced
notes: reduced human thioredoxin, overexpressed in and purified from recombinant E. coli
- second order rate constant for reduction of oxidized TG2, relative to DTT (comparable conditions): at least 100 times
- second order rate constant for reduction of oxidized TG2, relative to E. coli Trx (comparable conditions): at least 150 times
- Km (human thioredoxin reductase as catalyst, steady state): 21 µM
